The values that follow are results of earlier work, collected in PMC4368888, “Preclinical to Clinical Translation of CNS Transporter Occupancy of TD-9855, a Novel Norepinephrine and Serotonin Reuptake Inhibitor” (International Journal of Neuropsychopharmacology, 2015).

The chains behind the UniProt entries cited, without tags or fusion partners.
UniProt P23975, whole entry: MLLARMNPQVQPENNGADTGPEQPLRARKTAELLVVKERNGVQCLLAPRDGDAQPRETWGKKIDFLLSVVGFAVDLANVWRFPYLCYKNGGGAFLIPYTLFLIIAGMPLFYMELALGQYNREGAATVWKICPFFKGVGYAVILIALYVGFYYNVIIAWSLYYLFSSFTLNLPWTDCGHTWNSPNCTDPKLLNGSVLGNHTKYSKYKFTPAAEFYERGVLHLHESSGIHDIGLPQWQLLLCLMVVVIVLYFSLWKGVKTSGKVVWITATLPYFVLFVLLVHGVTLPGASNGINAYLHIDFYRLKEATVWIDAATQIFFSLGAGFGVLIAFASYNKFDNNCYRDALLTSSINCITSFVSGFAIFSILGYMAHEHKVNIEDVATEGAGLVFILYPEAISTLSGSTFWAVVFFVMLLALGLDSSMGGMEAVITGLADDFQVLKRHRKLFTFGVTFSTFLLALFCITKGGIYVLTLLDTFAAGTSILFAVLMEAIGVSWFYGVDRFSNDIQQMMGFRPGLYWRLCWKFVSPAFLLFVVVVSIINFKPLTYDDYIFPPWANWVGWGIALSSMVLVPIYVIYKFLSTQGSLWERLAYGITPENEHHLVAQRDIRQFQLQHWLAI

One data set has as its system SERT and NET. The following applies: in vitro; ref Wu et al., 2008; Tsuruda et al., 2010; cited from earlier work.
A further data set concerns the target NET (Homo sapiens, UniProt P23975). Particulars: dose 75mg; ref Sekine et al., 2010; Takano et al., 2014; cited from earlier work.

Structures are written as SMILES.

In the case of `CCOc1ccccc1O[C@@H](c1ccccc1)[C@@H]1CNCCO1` [esreboxetine], in the data set with SERT and NET, the “functional selectivity for NE” value was ≥ 10 000 fold.

For `CNCCC=C1c2ccccc2CCc2ccccc21` [nortriptyline], the NET occupancy at NET is ~ 50%.
